The entries are a selection whose mix differs from that of the whole data set. Active and inactive are the calls of the source.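 Rule for the calls: active = compounds giving at least 50% protection of heart cells from peroxide-induced death in the single-dose screen, raw or plate-pattern-corrected value; inactive = the rest.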
Assay: H9c2 cardiomyocyte survival under peroxide injury – uHTS, H9c2 cells, ATPLite luminescence, primary screen (AID 588492);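 note: 0% = DMSO wells with peroxide and 100% = DMSO wells without peroxide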
Conditions: H9c2 cardiomyocytes, 2 h, at 20 µM, hits give high values

Structure (SMILES)	protection from H2O2 cell death
CCC(=O)N(c1ccccc1)C1CCN(CCc2ccccc2)CC1	inactive: 1.2%
CCC(=O)N(c1ccccc1)C1(COC)CCN(CCc2cccs2)CC1	inactive: 2.4%
CCC(=O)N(c1ccccc1)C1(COC)CCN(CCn2nnn(CC)c2=O)CC1	inactive: -1.6%
